{"sequences": {"note": "Sequences of proteins named here, by UniProt entry; tags and fusion partners are left off.", "UniProt P48775, whole entry": "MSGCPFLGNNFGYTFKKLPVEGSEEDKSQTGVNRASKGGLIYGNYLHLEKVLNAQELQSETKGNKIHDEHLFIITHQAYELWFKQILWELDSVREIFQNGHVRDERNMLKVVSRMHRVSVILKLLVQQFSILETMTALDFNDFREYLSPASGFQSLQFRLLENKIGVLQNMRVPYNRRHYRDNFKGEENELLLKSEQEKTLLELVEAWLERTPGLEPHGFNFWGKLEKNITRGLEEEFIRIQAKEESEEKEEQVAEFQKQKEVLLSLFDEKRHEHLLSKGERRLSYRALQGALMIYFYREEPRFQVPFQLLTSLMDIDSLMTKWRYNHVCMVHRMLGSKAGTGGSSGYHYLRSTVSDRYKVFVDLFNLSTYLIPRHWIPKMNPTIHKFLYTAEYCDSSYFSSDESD"}, "source": "patent US11319283B2", "about": "“Substituted cyclobutylbenzene compounds as indoleamine 2,3-dioxygenase (IDO) inhibitors” (MERCK SHARP & DOHME CORP., priority 2017, dated 2022)", "target": "TDO (Homo sapiens, UniProt P48775)", "test": "TDO Cellular Assay in Frozen SW48 Cells", "type": "cell-based", "conditions": "read-out: SW48 IC50, 300 uM L-tryptophan, about 48 hours, fluorescence readout", "data": [{"smiles": "O=C(Nc1ccc(C2(C(=O)NC3Cc4ccc(F)cc43)CCC2)cc1)c1cccc(Cl)c1", "note": "(stereo not shown)", "values": [{"measurement": "IC50", "value": "≥ 10", "unit": "µM"}]}]}
